The numbers were not newly measured in patent US20230241164A1, “C-Type Natriuretic Peptides and Methods Thereof in Treating Cancer” (PHARMAIN CORPORATION, priority 2020, published 2023), which cites them from elsewhere.

For this data set the following is noted: as the dose increases to the desired therapeutic level; cited from earlier work.

In the case of “PGQEHPNARKYKGANKKGLSKGCFGLKLDRIGSMSGLGC [BMN-111]”, the “arterial blood pressure (BP)” value is given as “drops” and the “heart rate (HR)” value was “increases”.
